In patent publication US5773574A, “Polypeptides for promoting cell attachment” (The Scripps Research Institute, priority 1991, dated 1998):

Columns and labels:
[1] = biological target: GPIIb-IIIa (Homo sapiens (Human)) (UniProt P08514); experiment: 125I-labelled ligand on GPIIb-IIIa-coated wells; no inhibitor
[2] = biological target: GPIIb-IIIa (Homo sapiens (Human)) (UniProt P08514); experiment: competition with Fn binding to purified immobilized GPIIb-IIIa (FIG. 6); reference: added intact fibronectin
[3] = biological target: GPIIb-IIIa (Homo sapiens (Human)) (UniProt P08514); experiment: 125I-labelled ligand on GPIIb-IIIa-coated wells; inhibitor Mab 16.12
[4] = biological target: GPIIb-IIIa (Homo sapiens (Human)) (UniProt P08514); experiment: 125I-labelled ligand on GPIIb-IIIa-coated wells; inhibitor 2 mM EDTA

| Counts ×10^-3 (counts ×10^-3) [1] | fold less potent than intact fibronectin (weight basis) [2] | Counts ×10^-3 (counts ×10^-3) [3] | Counts ×10^-3 (counts ×10^-3) [4] | Substance |
| --- | --- | --- | --- | --- |
| 124 | 4 fold | 18 | 4 | MBP/III8+9 fusion protein (maltose binding protein fused to Fn residues 1255-1456) (from UniProt P0AEX9) |
| 15 | – | 9 | -4 | maltose binding protein (MBP) alone (from UniProt P0AEX9) |
